One substance from PMC5934274 can be followed below.

The test system of this data set is NC(=O)c1ccc[n+]([C@@H]2O[C@H](COP(=O)([O-])OP(=O)(O)OC[C@H]3O[C@@H](n4cnc5c(N)ncnc54)[C@H](O)[C@@H]3O)[C@@H](O)[C@H]2O)c1. Nature of the data set: purified protein, by the assay type. To be noted: other: PARP1 FL.

For the substance PARP1 (Homo sapiens), the Michaelis-Menten constant (Km) worked out at 0.78 ± 0.45 µM.

For orientation: Km means the concentration of substrate that gives half-maximal velocity.
